Test results: patent publication US20180256673A1, “METHODS FOR TREATING FUNGAL INFECTIONS” (priority 2015, published 2018)
Starred links: 1 amine or outer side, 2 acyl side, 3 side chain; linkers in the order of their positions; H or OH if unused. Positions of bridges follow the written chain, without caps; N, C: chain ends. Non-standard residues stand in square brackets, D forms with d. Residues, ends and D or L forms follow the SMILES beside them. *: point of attachment. Orn(4R-OH,5R-OCH2CH2NMe3+) = C[N+](C)(C)CCO[C@@H](N[*:3])[C@H](O)C[C@H](N[*:1])C(=O)[*:2]; pTerphenylCO(4''-OnC5H11) = CCCCCOc1ccc(-c2ccc(-c3ccc(C(=O)*)cc3)cc2)cc1; hTyr(3S-OH,4S-OH) = N[C@H](C(=O)O)[C@H](O)[C@@H](O)c1ccc(O)cc1; Pro(3S-OH,4S-Me) = C[C@H]1CN[C@H](C(=O)O)[C@H]1O; Hyp = O=C(O)[C@@H]1C[C@@H](O)CN1

System: C. albicans ATCC 90028 (FKS WT) and DPL22 (fks/FKS mutant S645P/S)
Assay: Invasive candidiasis model in neutropenic BALB/c mice, kidney burden
Details: P<0.05

Question: For `CCCCCOc1ccc(-c2ccc(-c3ccc(C(=O)N[C@H]4C[C@@H](O)[C@@H](OCC[N+](C)(C)C)NC(=O)[C@@H]5[C@@H](O)[C@@H](C)CN5C(=O)[C@H]([C@@H](C)O)NC(=O)[C@H]([C@H](O)[C@@H](O)c5ccc(O)cc5)NC(=O)[C@@H]5C[C@@H](O)CN5C(=O)[C@H]([C@@H](C)O)NC4=O)cc3)cc2)cc1` [Compound 1] ({pTerphenylCO(4''-OnC5H11)}-[Orn(4R-OH,5R-OCH2CH2NMe3+)]T[Hyp][hTyr(3S-OH,4S-OH)]T[Pro(3S-OH,4S-Me)]; lactam 1-C), which “reduction of kidney burdens compared to vehicle control” value (DPL22 infected mice, 24 h post-inoculation) is on record?
Answer: Its value is “over 2 logs”.

Question: And the “kidney burden versus vehicle” value (wild-type and fks/FKS mutant strains, 20, 40, 60 mg/kg single IP dose, 24 h and 48 h post-inoculation)?
Answer: Its value is “significant kidney burden reduction”.
